{"sequences": {"note": "Protein sequences, listed by entry. Tags and fused reporters are not part of them. Residues count along the entry.", "UniProt P49747, 21-757": "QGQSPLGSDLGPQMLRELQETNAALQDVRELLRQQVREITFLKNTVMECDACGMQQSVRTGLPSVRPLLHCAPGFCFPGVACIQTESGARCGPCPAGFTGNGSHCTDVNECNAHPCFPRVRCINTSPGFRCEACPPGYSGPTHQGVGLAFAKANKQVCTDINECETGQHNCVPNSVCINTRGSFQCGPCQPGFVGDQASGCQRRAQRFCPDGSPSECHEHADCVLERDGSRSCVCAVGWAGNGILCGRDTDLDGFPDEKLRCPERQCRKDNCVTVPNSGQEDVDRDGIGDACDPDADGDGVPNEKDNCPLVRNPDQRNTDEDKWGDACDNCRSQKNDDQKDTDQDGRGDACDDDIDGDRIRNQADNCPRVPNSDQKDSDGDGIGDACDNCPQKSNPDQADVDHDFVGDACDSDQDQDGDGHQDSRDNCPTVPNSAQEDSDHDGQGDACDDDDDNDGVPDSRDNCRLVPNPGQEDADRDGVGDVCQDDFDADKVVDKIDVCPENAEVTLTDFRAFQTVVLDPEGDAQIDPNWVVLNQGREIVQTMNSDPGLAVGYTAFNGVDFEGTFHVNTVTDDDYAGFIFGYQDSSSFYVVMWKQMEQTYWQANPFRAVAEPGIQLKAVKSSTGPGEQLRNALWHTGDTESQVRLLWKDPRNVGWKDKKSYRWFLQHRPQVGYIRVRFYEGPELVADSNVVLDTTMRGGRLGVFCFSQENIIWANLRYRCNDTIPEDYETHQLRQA"}, "source": "paper PMC6249252", "about": "“COMP and TSP-4 interact specifically with the novel GXKGHR motif only found in fibrillar collagens” (Scientific Reports, 2018)", "target": "… foldon collagen model peptide (leucine to proline) (not stated | bacteriophage T4)", "test": "ELISA; collagen model peptide or collagen XI coated; COMP or TSP-4 at indicated concentrations in TBS-T with 0.25% BSA, 1 h, room temperature; detected with anti-COMP or anti-TSP-4 antibody; four-parameter logistic fit; apparent KD", "note": "pKd: −log10 of the molar value.", "data": [{"substance": "cartilage oligomeric matrix protein (COMP), wild type, pentameric (from UniProt P49747 21-757) (natural protein)", "values": [{"measurement": "pKd", "value": 8.45}]}]}
